According to patent publication US20210386367A1, “DEVICES AND SYSTEMS FOR GASTROINTESTINAL MICROBIOME DETECTION AND MANIPULATION” (Progenity, Inc., priority 2018, published 2021):
“Also recorded” adds a separate entry of the source.

System: Proteus mirabilis
Experiment: Broth microdilution MIC, 50 clinical isolates
Assay type: cell-based

`CO/N=C(\C(=O)N[C@@H]1C(=O)N2C(C(=O)O)=C(CSc3nc(=O)c(=O)[nH]n3C)CS[C@H]12)c1csc(N)n1` [ceftriaxone] was tested, and the “relative activity among drugs tested” value was “most active drug tested; also recorded: most active agent tested”.
